Data reported in ChEMBL document CHEMBL4706658, “Discovery and Biological Evaluation of N-Methyl-pyrrolo[2,3-b]pyridine-5-carboxamide Derivatives as JAK1-Selective Inhibitors” (J Med Chem, 2021).

Chains of the proteins cited; added tags and fusions are not shown. Lines headed by an entry give the natural chain unless they say otherwise; changes in a name come on top.
UniProt P23458: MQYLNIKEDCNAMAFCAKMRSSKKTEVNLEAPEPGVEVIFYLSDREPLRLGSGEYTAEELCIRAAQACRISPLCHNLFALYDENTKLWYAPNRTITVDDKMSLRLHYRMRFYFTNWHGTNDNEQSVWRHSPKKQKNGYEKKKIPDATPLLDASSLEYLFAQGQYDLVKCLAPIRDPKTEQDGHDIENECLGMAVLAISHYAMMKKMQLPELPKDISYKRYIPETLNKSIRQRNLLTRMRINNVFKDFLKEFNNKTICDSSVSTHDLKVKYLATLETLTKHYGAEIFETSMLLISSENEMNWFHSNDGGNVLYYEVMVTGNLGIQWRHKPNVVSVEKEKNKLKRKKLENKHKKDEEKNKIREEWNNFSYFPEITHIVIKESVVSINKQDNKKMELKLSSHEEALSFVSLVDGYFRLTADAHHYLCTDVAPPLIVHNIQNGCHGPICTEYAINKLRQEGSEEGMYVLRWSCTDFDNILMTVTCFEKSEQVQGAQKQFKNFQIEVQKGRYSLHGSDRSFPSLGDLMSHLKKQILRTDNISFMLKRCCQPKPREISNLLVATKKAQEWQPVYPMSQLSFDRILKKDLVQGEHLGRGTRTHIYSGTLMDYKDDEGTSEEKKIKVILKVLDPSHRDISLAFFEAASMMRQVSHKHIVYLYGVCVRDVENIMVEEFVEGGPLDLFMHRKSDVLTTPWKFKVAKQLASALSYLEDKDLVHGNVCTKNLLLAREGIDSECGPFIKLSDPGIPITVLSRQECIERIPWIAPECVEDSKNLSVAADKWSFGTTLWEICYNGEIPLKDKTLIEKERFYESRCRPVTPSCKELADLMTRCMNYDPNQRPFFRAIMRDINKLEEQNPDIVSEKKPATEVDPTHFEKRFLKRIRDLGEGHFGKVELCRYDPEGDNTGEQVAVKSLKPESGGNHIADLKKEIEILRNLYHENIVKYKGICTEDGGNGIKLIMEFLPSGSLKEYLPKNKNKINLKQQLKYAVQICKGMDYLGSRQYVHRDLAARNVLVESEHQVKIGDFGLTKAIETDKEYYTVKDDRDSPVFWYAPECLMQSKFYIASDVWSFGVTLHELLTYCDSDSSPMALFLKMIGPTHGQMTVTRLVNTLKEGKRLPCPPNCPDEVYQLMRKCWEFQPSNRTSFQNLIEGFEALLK
UniProt O60674: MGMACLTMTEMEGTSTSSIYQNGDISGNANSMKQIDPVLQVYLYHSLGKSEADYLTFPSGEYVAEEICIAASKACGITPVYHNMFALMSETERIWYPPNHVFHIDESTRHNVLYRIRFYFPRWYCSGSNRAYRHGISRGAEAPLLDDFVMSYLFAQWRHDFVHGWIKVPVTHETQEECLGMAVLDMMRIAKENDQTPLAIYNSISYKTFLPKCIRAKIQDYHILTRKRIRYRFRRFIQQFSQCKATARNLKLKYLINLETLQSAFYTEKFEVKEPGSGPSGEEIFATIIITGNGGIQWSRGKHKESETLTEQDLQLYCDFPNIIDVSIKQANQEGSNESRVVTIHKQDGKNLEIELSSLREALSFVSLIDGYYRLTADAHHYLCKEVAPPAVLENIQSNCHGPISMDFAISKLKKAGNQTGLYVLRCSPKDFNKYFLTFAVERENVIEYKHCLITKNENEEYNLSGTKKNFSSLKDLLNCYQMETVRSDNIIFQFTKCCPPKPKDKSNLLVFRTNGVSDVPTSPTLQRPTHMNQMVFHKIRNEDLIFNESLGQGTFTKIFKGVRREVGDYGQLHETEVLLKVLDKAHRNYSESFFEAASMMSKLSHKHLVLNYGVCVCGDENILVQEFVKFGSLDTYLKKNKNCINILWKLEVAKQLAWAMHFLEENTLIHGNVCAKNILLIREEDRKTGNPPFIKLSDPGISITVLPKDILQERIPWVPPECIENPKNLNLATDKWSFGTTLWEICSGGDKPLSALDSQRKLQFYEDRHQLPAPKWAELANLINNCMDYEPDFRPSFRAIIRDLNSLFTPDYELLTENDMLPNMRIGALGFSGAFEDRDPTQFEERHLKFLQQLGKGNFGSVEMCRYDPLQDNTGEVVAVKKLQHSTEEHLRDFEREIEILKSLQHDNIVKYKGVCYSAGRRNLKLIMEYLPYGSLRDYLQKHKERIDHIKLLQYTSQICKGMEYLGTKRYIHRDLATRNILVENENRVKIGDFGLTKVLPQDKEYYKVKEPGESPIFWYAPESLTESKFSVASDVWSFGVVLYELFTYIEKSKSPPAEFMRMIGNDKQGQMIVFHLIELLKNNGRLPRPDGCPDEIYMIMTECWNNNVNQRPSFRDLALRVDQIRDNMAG
UniProt P29597: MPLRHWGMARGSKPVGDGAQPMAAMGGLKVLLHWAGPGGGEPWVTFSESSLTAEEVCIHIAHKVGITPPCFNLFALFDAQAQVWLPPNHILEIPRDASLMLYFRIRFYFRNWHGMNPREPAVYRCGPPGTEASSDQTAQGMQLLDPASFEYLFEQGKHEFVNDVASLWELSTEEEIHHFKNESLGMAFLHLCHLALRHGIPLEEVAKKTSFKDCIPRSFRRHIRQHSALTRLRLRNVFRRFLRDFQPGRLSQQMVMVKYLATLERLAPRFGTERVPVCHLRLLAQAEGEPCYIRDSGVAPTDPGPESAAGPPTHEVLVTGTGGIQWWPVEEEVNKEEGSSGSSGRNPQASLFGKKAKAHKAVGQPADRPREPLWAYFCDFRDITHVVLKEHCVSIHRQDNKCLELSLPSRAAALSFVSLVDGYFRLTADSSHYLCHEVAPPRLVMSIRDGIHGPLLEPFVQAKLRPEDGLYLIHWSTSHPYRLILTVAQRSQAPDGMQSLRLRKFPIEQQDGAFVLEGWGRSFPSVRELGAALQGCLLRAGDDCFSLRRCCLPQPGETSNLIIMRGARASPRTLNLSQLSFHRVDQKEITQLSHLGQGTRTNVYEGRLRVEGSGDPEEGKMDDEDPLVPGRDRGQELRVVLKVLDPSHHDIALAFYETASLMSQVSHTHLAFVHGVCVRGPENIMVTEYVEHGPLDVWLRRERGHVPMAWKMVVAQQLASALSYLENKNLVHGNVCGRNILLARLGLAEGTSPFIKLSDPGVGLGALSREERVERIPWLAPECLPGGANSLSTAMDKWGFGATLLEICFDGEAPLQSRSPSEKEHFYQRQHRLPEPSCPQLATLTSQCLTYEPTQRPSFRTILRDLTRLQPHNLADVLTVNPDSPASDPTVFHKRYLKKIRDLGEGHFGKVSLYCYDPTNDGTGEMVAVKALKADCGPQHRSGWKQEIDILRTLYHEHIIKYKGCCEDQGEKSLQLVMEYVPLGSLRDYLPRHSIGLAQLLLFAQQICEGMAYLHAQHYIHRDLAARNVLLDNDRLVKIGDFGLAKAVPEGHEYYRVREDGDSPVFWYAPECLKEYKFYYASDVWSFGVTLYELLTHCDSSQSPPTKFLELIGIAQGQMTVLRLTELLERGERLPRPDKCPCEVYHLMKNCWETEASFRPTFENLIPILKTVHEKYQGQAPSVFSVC

How the values were obtained:
[1] = target: Tyrosine-protein kinase JAK1 (Homo sapiens, UniProt P23458)
[2] = target: Tyrosine-protein kinase JAK2 (Homo sapiens, UniProt O60674)
[3] = target: Non-receptor tyrosine-protein kinase TYK2 (Homo sapiens, UniProt P29597)

Compound	IC50 [1]	IC50 [2]	IC50 [3]
NC(=O)c1cnc2[nH]ccc2c1NC1CCN(Cc2ccccc2)CC1	88 nM	–	–
CNC(=O)c1cnc2[nH]ccc2c1NC1CCN(Cc2ccccc2)CC1	–	660 nM	–
CNC(=O)c1cnc2[nH]ccc2c1N[C@@H]1CCN(Cc2ccccc2)[C@@H](C)C1 (relative stereo)	–	179 nM	–
CNC(=O)c1cnc2[nH]ccc2c1N[C@@H]1CCN(Cc2cccc(OC)c2)C[C@@H]1F (relative stereo)	–	–	116 nM
CNC(=O)c1cnc2[nH]ccc2c1N[C@@H]1CCN(Cc2cccc(OC)c2)[C@@H](C)C1 (relative stereo)	–	88.5 nM	–
CNC(=O)c1cnc2[nH]ccc2c1N[C@@H]1CCN(Cc2cccc(OC)c2)[C@H](C)C1 (relative stereo)	–	28.4 nM	–
CNC(=O)c1cnc2[nH]ccc2c1N[C@@H]1CCN(Cc2cccc(Cl)c2)C[C@H]1F (relative stereo)	17 nM	28 nM	308 nM
CNC(=O)c1cnc2[nH]ccc2c1N[C@@H]1CCN(Cc2ccc(OC)cc2)[C@H](C)C1 (relative stereo)	–	63.2 nM	–
